Assay results reported in patent US6362236B1, “Inhibition of lipoprotein oxidation” (Warner-Lambert Company, priority 1997, dated 2002).

Each compound was assayed on LDL (assay: Copper ion (CuSO4)-induced LDL oxidation). Settings: 10 μM CuSO4; control 50±7; n=3.
Assay type: biochemical, human

Question: For `CC(C)c1c(C(=O)Nc2ccccc2)c(-c2ccccc2)c(-c2ccc(F)cc2)n1CC[C@@H](O)C[C@@H](O)CC(=O)O` [atorvastatin, reference compound], which “lag time required for the initiation of LDL oxidation (conjugated dienes formation at 234 nm)” value (from here on “lag time required for the initiation”) is on record?
Answer: The value was 50 ± 7 min.

Question: For `CC(C)c1c(C(=O)Nc2ccccc2O)c(-c2ccccc2)c(-c2ccc(F)cc2)n1CC[C@@H](O)C[C@@H](O)CC(=O)O` [ortho-hydroxy metabolite, ortho-hydroxy atorvastatin], which “lag time required for the initiation” value is on record?
Answer: The value was 180 ± 25 min.

Question: Which “lag time required for the initiation” value does the source give for `CC(C)c1c(C(=O)Nc2ccc(O)cc2)c(-c2ccccc2)c(-c2ccc(F)cc2)n1CC[C@@H](O)C[C@@H](O)CC(=O)O` [para-hydroxy metabolite, para-hydroxy atorvastatin] here?
Answer: Its value is 180 ± 25 min.
